# Apparent affinities of Ab-14 variants for a coronavirus HR2 peptide

Reference: Li et al. 2023, doi:10.1038/s41467-023-39022-2. File: FLAb, binding data.

Target: peptide PDVDLGDISGINAS, taken from heptad repeat 2 (HR2) of SARS-CoV-2 spike.

Parent scFv Ab-14: VH joined to VL by three GGGGS repeats. Changes lie in the heavy chain CDRs alone.
VH: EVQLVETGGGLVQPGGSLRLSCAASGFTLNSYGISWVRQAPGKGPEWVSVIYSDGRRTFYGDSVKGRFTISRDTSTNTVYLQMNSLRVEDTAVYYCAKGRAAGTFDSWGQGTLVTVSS
VL: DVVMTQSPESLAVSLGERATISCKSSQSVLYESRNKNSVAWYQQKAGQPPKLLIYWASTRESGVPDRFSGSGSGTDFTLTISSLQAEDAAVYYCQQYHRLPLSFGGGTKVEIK

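The parent was found by panning a naive human phage display library on the peptide. This is the validation round: designs drawn from the data on random variants, tested in the same kind of assay. Group labels follow the data file (Ctrl: baseline library sampled from a position-specific scoring matrix, with some repeated check sequences; Rand: our label for a block that the file lists under HC and that is probably the random mutants of the ten best first-round binders; GP: Gaussian process model; GPLM: also part of the Gaussian process libraries; HC: hill climbing; Gen: genetic algorithm; Gibbs: Gibbs sampling; a sequence that several methods proposed may carry one label only). The scFvs were displayed on barcoded MATa yeast, the peptide on MATalpha yeast. Binding brings cells together so that they mate, and sequencing counts the barcode pairs among the diploids. Scores were corrected for input abundance and mapped to Kd with protein pairs of known affinity run in the same pool. There are six technical replicates.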

Changes read parent residue, position, new residue, counted from the first residue of the VH shown. Variants here have at most six changes. Numbers give log10(Kd / nM), so 0 is 1 nM and 3 is 1 µM. Smaller is tighter. Replicates are averaged; those with no signal do not enter the mean. Where no diploid with the target was found in that replicate, the entry reads "ND": below detection, most likely a poor binder, though not proof of it. Values of this round are not directly comparable with the first-round values of the same sequences. The authors averaged sequences with at least three values out of six and counted those with two or fewer as poor binders. Background: pairings of all heavy chain designs with three empty control strains gave a value in 1% of cases (median 2.08, 5th percentile 0.84). Values in that range, when seen in few replicates, are hard to tell from nonspecific mating.

changes	group	log10 Kd (nM) by replicate	mean, log10 nM
D62W	Ctrl	ND ND ND ND ND ND	ND
T28H	Ctrl	0.32 0.69 -0.51 -0.28 0.09 -0.29	0.00
S31D F59M G61I R100L	GPLM_HC	0.73 0.71 0.77 0.47 0.70 1.16	0.76
G26K V64E S107T	Ctrl	1.24 ND ND ND ND ND	1.24
T28D F105S D106I	Ctrl	ND ND ND 1.86 ND ND	1.86
G26D G61D R100Q A101L	Rand	ND ND ND ND ND ND	ND
T28W S31E R100S	GP_Gen	0.75 0.94 1.30 0.83 1.27 0.98	1.01
T28S S31E G61Q R100Q	GPLM_Gen	0.30 -0.13 -0.02 -0.08 -0.14 0.00	-0.01
G26Q S31K G61S S63R	Ctrl	1.55 ND ND ND ND ND	1.55
G61H R100E A101L G103A F105S S107P	Ctrl	ND 2.49 ND 1.50 1.65 1.73	1.84
T28D Y52N Y60A G103I T104W D106I	Rand	ND ND ND ND ND ND	ND
G26K T28S G61A A101L S107T	GP_Gibbs	ND 1.28 1.27 0.48 1.07 0.82	0.98
N30D S63N K65V A101K G103K F105I	Ctrl	ND ND ND ND ND ND	ND
T28S S63D R100E S107N	GP_Gibbs	1.15 0.36 0.35 0.33 0.54 0.73	0.58
F59G G61K F105P	Ctrl	ND ND ND ND ND ND	ND
T28Q G61S R100M	GP_HC	1.29 ND 0.60 0.46 1.26 ND	0.91
S31E R56V D106I	GP_HC	ND ND ND ND ND ND	ND
R56I G61N R100Q A102E	Ctrl	ND ND ND ND 3.08 ND	3.08
S31E S63M G103V S107Q	GPLM_HC	ND ND ND ND ND ND	ND
F27Y T28S S31E A101T	GPLM_Gibbs	0.32 -0.05 0.27 -0.53 0.11 -0.10	0.00
S31E G61W G103V S107K	GP_HC	ND ND ND ND ND ND	ND
G26L S107L	Ctrl	ND ND 2.36 ND ND 3.19	2.78
N30W I51N S107A	Ctrl	ND ND ND ND ND ND	ND
T28E S31D G61K	GP_HC	1.10 0.35 0.18 -0.22 0.52 0.54	0.41
T28S S31E G61S A101Q S107T	GP_Gibbs	0.18 -0.40 -0.12 -0.76 -0.40 -0.25	-0.29
T28D S31E G61D A101T	GP_Gibbs	0.38 0.58 0.12 0.42 0.49 0.35	0.39
R56M R100Y A101M	Ctrl	ND ND ND ND ND ND	ND
N30D G61T A101L	GP_HC	0.38 0.77 0.29 0.22 0.66 0.54	0.48
T28S G61A R100Q S107T	GPLM_Gen	0.34 -0.19 -0.27 -0.45 -0.37 -0.10	-0.17
T28D G61L R100N A101T	GP_Gibbs	0.59 0.31 0.44 0.41 0.53 1.31	0.60
T28R G61K D106E	Ctrl	1.61 1.26 2.28 1.83 1.84 1.71	1.76

The closing 4 entries, repeated:

changes	group	log10 Kd (nM) by replicate	mean, log10 nM
N30D G61T A101L	GP_HC	0.38 0.77 0.29 0.22 0.66 0.54	0.48
T28S G61A R100Q S107T	GPLM_Gen	0.34 -0.19 -0.27 -0.45 -0.37 -0.10	-0.17
T28D G61L R100N A101T	GP_Gibbs	0.59 0.31 0.44 0.41 0.53 1.31	0.60
T28R G61K D106E	Ctrl	1.61 1.26 2.28 1.83 1.84 1.71	1.76